Source: patent publication US8383672B2, “Halogenated rhodamine derivatives and applications thereof” (Kiadis Pharma Canada Inc., priority 2001, dated 2013)

Legend:
S. epidermitis = assay: Bacteriostatic activity of rhodamine derivatives against Staphilococcus epidermitis (photodynamic treatment, CFU/mL); format: cell-based; details: 10 μM; 514 nm light 180 minutes, 30 Joules/cm^2
Experimental: Staphilococcus epidermitis
The protocol used for the bacteriosidic inactivation was performed as described in Brasseur and coll. with few modifications for bacteriosidic potential assessment (Brasseur et al, 2000).
Bacterial was grown overnight in Lubria Broth medium (LB), 100 μl (≈1×10^7 bacteria) of each bacterial suspension was added to 4 ml of LB medium, a small aliquot of the bacterial suspension was taken out for bacterial titer prior to treatment expressed as CFU/mL. […] Each mixture of bacteria rhodamine derivative was incubated at 37° C. for 40 minutes. The bacteria-rhodamine suspensions were then treated and exposed to a 514 nm wavelength light for 180 minutes, for a total output energy of 30 Joules/cm^2. Following the treatment time, the bacteria-rhodamine suspensions were centrifuged at 3000 g, resuspended in 4 ml and serial dilutions were performed for each duplicate. 10 μL of the diluted bacterial suspensions were plated, the plates incubated overnight at 37° C. The bacteriostatic effect is expressed by the number of CFU/mL.
The protocol used for the bacteriosidic inactivation was performed as described in Brasseur and coll. without modification for bacteriosidic potential assessment (Brasseur et al, 2000).
Bacterial was grown overnight in Lubria Broth medium (LB), 100 μl (≈1×10^7 bacteria) of each bacterial suspension added to 4 ml of LB medium. […]

E. coli = assay: Bacteriostatic activity of rhodamine derivatives against E. coli (photodynamic treatment, CFU/mL); details: 50 μM; 514 nm light 180 minutes, 30 Joules/cm^2

CCN(CC)c1ccc2c(-c3ccccc3C(=O)OCCCBr)c3ccc(=[N+](CC)CC)cc-3oc2c1 [HA-VIII-92, rhodamine B 3-bromopropyl ester]
antibacterial activity against S. epidermitis (S. epidermitis): showed antibacterial activity
antibacterial activity against E. coli (E. coli): showed antibacterial activity
